Reference: US20250120967A1, “TYROSINE KINASES INHIBITORS AND USES THEREOF” (GREAT NOVEL THERAPEUTICS BIOTECH & MEDICALS CORPORATION, priority 2023, published 2025)

Target: T1, TYRO3 (RSE) (Homo sapiens, UniProt Q06418)
T1 sequence (Q06418 41-890): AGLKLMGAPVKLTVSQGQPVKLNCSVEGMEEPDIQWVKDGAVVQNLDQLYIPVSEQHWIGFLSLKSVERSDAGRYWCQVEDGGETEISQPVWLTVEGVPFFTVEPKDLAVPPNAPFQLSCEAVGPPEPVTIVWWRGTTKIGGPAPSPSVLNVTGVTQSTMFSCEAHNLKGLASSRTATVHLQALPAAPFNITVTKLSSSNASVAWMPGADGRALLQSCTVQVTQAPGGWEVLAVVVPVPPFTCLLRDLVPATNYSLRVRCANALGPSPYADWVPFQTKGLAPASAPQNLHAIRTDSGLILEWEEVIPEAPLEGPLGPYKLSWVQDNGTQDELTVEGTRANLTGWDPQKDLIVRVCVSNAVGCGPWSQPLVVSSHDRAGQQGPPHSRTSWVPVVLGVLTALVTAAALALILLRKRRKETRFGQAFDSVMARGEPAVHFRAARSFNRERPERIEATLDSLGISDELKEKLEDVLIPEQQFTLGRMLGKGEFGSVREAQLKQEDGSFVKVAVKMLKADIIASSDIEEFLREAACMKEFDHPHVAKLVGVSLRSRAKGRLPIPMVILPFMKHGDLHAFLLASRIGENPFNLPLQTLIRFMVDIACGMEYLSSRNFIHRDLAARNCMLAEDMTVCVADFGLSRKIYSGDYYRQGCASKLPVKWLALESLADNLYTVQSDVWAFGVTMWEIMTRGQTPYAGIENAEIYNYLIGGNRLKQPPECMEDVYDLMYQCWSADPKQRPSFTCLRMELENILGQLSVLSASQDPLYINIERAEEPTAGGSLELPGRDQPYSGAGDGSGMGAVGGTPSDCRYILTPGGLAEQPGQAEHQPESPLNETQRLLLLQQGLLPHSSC
Assay: Tyrosine kinase inhibition assay
Type: biochemical
Details: read-out: percent inhibition
Procedure: Tyrosine kinase inhibition assays were performed at ThermoFisher Life Technologies (Madison, WI, USA) using standard protocols (SelectScreen Biochemical Profiling Service, Thermo Fisher Scientific). ATP concentrations used were at the apparent Km. Test compounds were screened in 1% dimethylsulffoxide (DMSO) (final concentration) in the well. For 10-point titrations, 3-fold serial dilutions were conducted from the starting concentration of […]. All Peptide/Kinase Mixtures were diluted to a 2× working concentration in the appropriate Kinase Buffer. All ATP Solutions were diluted to a 4× working concentration in Kinase Buffer (50 mM HEPES pH 7.5, 0.01% BRIJ-35, 10 mM MgCl2, 1 mM EGTA). The apparent ATP Km was previously determined using a Z′-LYTE assay. The Development Reagent was diluted in Development Buffer.
The inhibition activities of compounds were determined in biochemical assays using single concentration (1.0 μM) measurements. The results were provided as percent inhibition values. […] 99 different tyrosine kinases were used.

COc1cc2nccc(Oc3ccc(NC(=O)C4(C(=O)Nc5ccc(F)cc5)CC4)cc3)c2cc1OC [Cabozantinib, reference compound]
inhibition at 1 µM: 99%
